From ChEMBL document CHEMBL4732045, “Amide Bond Bioisosteres: Strategies, Synthesis, and Successes” (J Med Chem, 2020)

By UniProt entry, the sequences of proteins in these tests, tags left out. Where a name states a change or a piece, a line headed by the entry shows the natural chain unless it says otherwise.
UniProt P41145: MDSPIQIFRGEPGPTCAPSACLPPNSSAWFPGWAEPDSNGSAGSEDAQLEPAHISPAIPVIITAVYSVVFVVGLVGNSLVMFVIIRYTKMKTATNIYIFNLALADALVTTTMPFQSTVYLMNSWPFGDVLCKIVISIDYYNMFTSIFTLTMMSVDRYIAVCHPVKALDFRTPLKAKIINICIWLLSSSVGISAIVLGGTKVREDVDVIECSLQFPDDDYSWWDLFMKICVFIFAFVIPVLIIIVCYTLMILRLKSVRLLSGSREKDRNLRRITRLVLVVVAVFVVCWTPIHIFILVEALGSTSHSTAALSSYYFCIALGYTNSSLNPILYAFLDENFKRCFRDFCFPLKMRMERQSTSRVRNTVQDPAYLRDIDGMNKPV

How the values were obtained:
Homo sapiens [1] = organism: Homo sapiens; assay: Selectivity ratio of EC50 for human mu opioid receptor expressed in CHO-K1 cells to EC50 for human delta opioid receptor expressed in CHO-K1 cells; format: cell-based
[2] = molecular target: Kappa-type opioid receptor (Homo sapiens, UniProt P41145)
Homo sapiens [3] = organism: Homo sapiens; assay: Selectivity ratio of EC50 for human kappa opioid receptor expressed in CHO-K1 cells to EC50 for human delta opioid receptor expressed in CHO-K1 cells; format: cell-based

SMILES: CC(C)C[C@H](NC(=O)[C@H](Cc1ccccc1)NC(=O)CNC(=O)C/C=C(\F)[C@@H](N)Cc1ccc(O)cc1)C(=O)O
- Ratio EC50 (Homo sapiens [1]): 12
- EC50 [2]: > 10 µM
- Ratio EC50 (Homo sapiens [3]): > 2000
